Experimental data taken from patent publication US12435128B2, “Method for predicting therapeutic effect of LSD1 inhibitor based on expression of INSM1” (TAIHO PHARMACEUTICAL CO., LTD., priority 2017, dated 2025).

Legend:
Format in all cases: cell-based
[1] = system: HEL cells (human acute myelocytic leukemia cell lines); experiment: Cell-growth inhibition test: HEL cells; conditions: read-out: IC50 (nM), Cell-Growth Inhibition Test: HEL Cells
Experimental: (§1) Under the following conditions, an in vitro cell-growth inhibition test was performed with respect to HEL cells (human acute myelocytic leukemia cell lines), NCI-H1417 cells (human small-cell lung cancer cell lines), and NCI-H146 cells (human small-cell lung cancer cell lines).
(§2) The cells with the Example compound or with dimethylsulfoxide alone were cultured at 37° C. in a 5% carbon-dioxide-containing incubator for 5 days (HEL cells) or 10 days (NCI-H1417 cells and NCI-H146 cells). After culture, the plate was allowed to stand at room temperature for 30 minutes, and 100 μL of the supernatant was removed from each well to leave 100 μL of the cell culture solution. To each well containing the remaining 100 μL of the cell culture solution, the same amount of CellTiter-Glo 2.0 Assay (Promega, Cat #: G9242) was added. The microplate was shaken with a plate mixer for 1 minute and then allowed to stand in a dark place for 10 minutes. Thereafter, the luminescence intensity of viable cells in each well was measured using a microplate reader (PerkinElmer, EnSpire). […] Cell growth rate(%)=T/C×100 • T: The luminescence intensity in a well to which the test compound was added (count per second) • C: The luminescence intensity in a well to which dimethylsulfoxide alone was added (count per second)

[2] = system: NCI-H146 cells (human small-cell lung cancer cell lines); experiment: Cell-growth inhibition test: NCI-H146 cells; conditions: NCI-H146, read-out: IC50 (nM), Cell-Growth Inhibition Test: NCI-H146 Cells
Experimental: as §1, §2

[3] = system: NCI-H1417 cells (human small-cell lung cancer cell lines); experiment: Cell-growth inhibition test: NCI-H1417 cells; conditions: NCI-H1417, read-out: IC50 (nM), Cell-Growth Inhibition Test: NCI-H1417 Cells
Experimental: as §1, §2

Compound	IC50 [3] [nM]	further results
COCCc1ccc(-c2ccc(C(=O)N3[C@H]4CC[C@@H]3[C@H](N)C4)cc2-c2ccc(C#N)c(F)c2)c(F)c1 (relative stereo) [Example 143, 4-[5-[(1S,3R,4R)-rel-3-amino-7-azabicyclo[2.2.1]heptane-7-carbonyl]-2-[2-fluoro-4-(2-methoxyethyl)phenyl]phenyl]-2-fluoro-benzonitrile]		IC50 [1]: 0.06 nM
CC(C)(O)Cn1nnc2cc(-c3ccc(C(=O)N4[C@H]5CC[C@@H]4[C@H](N)C5)cc3-c3ccc(C#N)c(F)c3)c(F)c(C3CC3)c21 (relative stereo) [Example 278, 5′-((1R,2R,4S)-rel-2-amino-7-azabicyclo[2.2.1]heptane-7-carbonyl)-2′-(7-cyclopropyl-6-fluoro-1-(2-hydroxy-2-methylpropyl)-1H-benzo[d][1,2,3]triazol-5-yl)-3-fluoro-[1,1′-biphenyl]-4-carbonitrile]		IC50 [2]: 6.16 nM
Cn1nnc2cc(-c3ccc(C(=O)N4[C@@H]5CC[C@H]4[C@@H](N)C5)cc3-c3ccc(C#N)c(F)c3)c(F)c(F)c21 (single isomer, unassigned; isomer-b) [Example 175]	0.8	
CC(C)(O)Cc1ccc(-c2ccc(C(=O)N3[C@@H]4CC[C@H]3[C@@H](N)C4)cc2-c2ccc(C#N)c(F)c2)c(F)c1 (relative stereo) [Example 193, 5′-((1S,2S,4R)-rel-2-amino-7-azabicyclo[2.2.1]heptane-7-carbonyl)-2″,3-difluoro-4″-(2-hydroxy-2-methylpropyl)-[1,1′:2′,1″-terphenyl]-4-carbonitrile]	8.66	
